Data from paper PMC5500279, “High-throughput electrophysiological assays for voltage gated ion channels using SyncroPatch 768PE” (PLoS ONE, 2017).
Where two headings read alike, the source gives them in different places.

The chains behind the UniProt entries cited, without tags or fusion partners.
UniProt Q15858, whole entry: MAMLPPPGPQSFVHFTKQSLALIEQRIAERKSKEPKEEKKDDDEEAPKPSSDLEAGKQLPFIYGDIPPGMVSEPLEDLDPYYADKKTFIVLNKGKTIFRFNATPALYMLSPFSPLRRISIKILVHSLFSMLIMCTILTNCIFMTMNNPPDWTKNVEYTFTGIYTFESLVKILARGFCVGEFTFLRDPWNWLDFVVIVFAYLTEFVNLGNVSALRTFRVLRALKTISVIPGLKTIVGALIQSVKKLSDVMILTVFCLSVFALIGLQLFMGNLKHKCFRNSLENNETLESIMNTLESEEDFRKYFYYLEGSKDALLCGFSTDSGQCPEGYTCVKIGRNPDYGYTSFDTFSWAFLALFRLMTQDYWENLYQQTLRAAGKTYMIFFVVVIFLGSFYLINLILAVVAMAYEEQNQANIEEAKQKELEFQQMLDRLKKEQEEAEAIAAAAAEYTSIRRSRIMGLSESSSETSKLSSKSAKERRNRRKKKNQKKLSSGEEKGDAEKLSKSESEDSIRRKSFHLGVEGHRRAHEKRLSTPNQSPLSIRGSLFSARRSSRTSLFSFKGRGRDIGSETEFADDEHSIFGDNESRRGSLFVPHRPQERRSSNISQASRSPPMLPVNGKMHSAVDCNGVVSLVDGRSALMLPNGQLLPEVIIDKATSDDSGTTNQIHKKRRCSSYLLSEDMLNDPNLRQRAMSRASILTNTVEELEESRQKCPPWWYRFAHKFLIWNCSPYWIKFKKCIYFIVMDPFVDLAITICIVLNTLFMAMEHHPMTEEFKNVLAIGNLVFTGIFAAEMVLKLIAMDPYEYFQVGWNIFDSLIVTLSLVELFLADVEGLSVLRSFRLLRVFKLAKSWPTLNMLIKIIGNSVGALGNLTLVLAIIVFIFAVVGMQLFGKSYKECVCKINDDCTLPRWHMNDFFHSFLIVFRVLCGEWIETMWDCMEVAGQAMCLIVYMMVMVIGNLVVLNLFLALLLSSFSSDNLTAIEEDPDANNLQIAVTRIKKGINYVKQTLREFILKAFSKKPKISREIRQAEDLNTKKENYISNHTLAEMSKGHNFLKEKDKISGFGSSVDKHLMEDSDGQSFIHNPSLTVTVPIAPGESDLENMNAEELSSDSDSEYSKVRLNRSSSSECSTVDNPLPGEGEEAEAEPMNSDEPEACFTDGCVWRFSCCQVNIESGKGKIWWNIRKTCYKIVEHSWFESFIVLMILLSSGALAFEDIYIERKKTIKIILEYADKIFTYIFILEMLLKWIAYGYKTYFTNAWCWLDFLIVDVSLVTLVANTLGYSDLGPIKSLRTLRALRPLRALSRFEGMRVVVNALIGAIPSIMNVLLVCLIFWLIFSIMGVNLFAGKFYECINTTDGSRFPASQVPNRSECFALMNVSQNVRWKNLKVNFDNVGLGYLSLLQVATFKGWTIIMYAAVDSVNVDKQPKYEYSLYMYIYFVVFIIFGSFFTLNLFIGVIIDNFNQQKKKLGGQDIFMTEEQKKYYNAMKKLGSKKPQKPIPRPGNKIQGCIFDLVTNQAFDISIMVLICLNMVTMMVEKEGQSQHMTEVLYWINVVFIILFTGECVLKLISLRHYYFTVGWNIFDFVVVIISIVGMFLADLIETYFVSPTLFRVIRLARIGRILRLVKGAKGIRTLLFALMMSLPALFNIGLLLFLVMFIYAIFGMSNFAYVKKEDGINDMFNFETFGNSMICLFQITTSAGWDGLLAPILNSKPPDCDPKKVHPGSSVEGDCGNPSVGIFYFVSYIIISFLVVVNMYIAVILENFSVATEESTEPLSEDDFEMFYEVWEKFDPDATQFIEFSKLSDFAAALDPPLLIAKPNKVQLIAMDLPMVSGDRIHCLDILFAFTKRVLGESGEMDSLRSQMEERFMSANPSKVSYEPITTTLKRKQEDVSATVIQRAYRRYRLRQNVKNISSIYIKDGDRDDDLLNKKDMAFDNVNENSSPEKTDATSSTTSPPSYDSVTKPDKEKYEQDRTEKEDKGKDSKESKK

Molecular target: human Nav1.7 (Homo sapiens, UniProt Q15858)
Assay: SyncroPatch 768PE automated patch clamp, two-state voltage protocol, CHO-Nav1.7 cells
Settings: closed state (-120 mV)
[1] = IC50 Single Dose Closed State, single concentration per well method
[2] = IC50 Six Dose Closed State, multiple (six) concentrations per well method

| SMILES | IC50 [1] [µM] | IC50 [2] [µM] | IC50 (read-out: IC50 Single Dose Closed State, single concentration per well method) [µM] | IC50 (read-out: IC50 Six Dose Closed State, multiple (six) concentrations per well method) [µM] |
| --- | --- | --- | --- | --- |
| O=C(NCC1CCCCN1)c1cc(OCC(F)(F)F)ccc1OCC(F)(F)F (stereo not drawn) [Flecainide] | 6.69 | 8.6 |  |  |
| CCN1CC(n2nccc2-c2cc(C(F)(F)F)ccc2Oc2ccc(S(=O)(=O)Nc3ncns3)cc2C#N)C1 [GX-936] |  |  | 0.007 | 0.0051 |
| Nc1nnc(-c2cccc(Cl)c2Cl)c(N)n1 [Lamotrigine] | 312 | 243 |  |  |
